Broadly, the cell viability is a read-out of living cells in per cent, often relative to untreated cells.

Drawing on the supplement of paper PMC13380429, this text covers cell viability for one molecule.

Each structure is given as a SMILES string.

The assay deals with HepG2. In words: cell viability relative to DMSO; higher = less toxic. To be noted: 72 h; 100 nM.

For the molecule `O=S(=O)(c1cccc2c(O)nccc12)N1CCCNCC1` [hydroxyfasudil], the cell viability is 108%.
